Test results as given in US20100035871A1, “BENZOXAZINE DERIVATIVES AND USES THEREOF” (priority 2006, published 2010).

The chains behind the UniProt entries cited, without tags or fusion partners. Residues count along the entry.
UniProt P28335, 33-458: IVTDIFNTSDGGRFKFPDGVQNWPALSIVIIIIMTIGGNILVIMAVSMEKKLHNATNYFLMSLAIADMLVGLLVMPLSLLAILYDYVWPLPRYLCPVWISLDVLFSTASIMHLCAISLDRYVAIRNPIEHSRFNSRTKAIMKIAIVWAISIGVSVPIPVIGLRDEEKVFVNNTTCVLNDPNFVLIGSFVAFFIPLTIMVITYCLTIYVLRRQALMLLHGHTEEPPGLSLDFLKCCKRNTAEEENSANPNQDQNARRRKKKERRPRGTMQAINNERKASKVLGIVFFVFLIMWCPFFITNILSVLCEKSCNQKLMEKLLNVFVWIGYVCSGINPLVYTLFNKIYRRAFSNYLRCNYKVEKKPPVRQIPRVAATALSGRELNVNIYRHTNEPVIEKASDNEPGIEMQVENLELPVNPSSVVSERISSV

Columns and labels:
human 5-HT2C receptor [1] = target: T1, human 5-HT2C receptor (Homo sapiens, UniProt P28335); experiment: 5-HT2C receptor binding, [125I]DOI displacement, membranes of transfected CHO cells; details: reference compounds; value (95% confidence interval); [125I]DOI binding
T1 construct: expressed in transfected cells; host or cells: CHO (Chinese Hamster Ovary) cells; membrane preparation

human 5-HT2C receptor [2] = target: T1, human 5-HT2C receptor; experiment: 5-HT2C receptor-stimulated calcium mobilization (FLIPR) in CHO cells; format: cell-based; details: reference compounds

Q: With “1-(2,5-dimethoxy-4-iodophenyl)isopropylamine [DOI, reference compound]” as the substance, how does the Ki (human 5-HT2C receptor [1]) read?
A: 6.2 nM

Q: What about the EC50 (human 5-HT2C receptor [2]) of the same substance?
A: 0.5 nM
